# Measurements reported in ChEMBL document CHEMBL2218924, “A broad activity screen in support of a chemogenomic map for kinase signalling research and drug discovery” (Biochem J, 2013).
# Chains of the proteins cited; added tags and fusions are not shown. Lines headed by an entry give the natural chain unless they say otherwise; changes in a name come on top.
# UniProt P27361, whole entry: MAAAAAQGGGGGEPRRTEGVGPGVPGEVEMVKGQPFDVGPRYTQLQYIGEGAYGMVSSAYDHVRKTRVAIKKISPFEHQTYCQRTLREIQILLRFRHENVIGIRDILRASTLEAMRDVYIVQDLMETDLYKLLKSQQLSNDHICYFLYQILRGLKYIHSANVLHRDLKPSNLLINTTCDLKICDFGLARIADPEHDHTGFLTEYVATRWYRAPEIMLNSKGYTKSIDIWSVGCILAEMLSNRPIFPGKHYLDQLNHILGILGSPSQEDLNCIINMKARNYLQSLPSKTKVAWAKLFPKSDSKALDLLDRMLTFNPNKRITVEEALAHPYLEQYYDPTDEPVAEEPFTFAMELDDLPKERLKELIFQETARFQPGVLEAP
# UniProt P28482, whole entry: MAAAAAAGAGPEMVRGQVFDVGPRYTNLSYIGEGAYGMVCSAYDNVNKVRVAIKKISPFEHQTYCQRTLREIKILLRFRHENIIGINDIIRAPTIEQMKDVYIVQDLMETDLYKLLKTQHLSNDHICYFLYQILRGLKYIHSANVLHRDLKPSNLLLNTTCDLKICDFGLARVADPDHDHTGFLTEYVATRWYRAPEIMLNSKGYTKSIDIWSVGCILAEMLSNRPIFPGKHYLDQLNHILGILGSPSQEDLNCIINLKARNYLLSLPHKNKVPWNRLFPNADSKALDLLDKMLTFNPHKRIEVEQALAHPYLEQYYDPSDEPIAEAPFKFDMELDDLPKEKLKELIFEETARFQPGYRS
# UniProt P49137, whole entry, looked up: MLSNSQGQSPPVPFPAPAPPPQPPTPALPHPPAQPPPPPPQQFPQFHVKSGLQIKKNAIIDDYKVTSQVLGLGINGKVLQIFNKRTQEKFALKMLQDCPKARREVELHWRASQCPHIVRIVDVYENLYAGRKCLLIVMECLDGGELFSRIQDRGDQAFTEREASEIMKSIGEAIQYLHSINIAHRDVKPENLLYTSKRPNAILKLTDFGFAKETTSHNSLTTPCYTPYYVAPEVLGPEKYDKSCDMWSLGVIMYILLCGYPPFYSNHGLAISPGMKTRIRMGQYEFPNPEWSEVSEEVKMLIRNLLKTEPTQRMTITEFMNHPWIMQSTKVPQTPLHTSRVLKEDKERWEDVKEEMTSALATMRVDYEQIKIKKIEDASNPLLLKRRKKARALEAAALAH
# UniProt Q5VT25: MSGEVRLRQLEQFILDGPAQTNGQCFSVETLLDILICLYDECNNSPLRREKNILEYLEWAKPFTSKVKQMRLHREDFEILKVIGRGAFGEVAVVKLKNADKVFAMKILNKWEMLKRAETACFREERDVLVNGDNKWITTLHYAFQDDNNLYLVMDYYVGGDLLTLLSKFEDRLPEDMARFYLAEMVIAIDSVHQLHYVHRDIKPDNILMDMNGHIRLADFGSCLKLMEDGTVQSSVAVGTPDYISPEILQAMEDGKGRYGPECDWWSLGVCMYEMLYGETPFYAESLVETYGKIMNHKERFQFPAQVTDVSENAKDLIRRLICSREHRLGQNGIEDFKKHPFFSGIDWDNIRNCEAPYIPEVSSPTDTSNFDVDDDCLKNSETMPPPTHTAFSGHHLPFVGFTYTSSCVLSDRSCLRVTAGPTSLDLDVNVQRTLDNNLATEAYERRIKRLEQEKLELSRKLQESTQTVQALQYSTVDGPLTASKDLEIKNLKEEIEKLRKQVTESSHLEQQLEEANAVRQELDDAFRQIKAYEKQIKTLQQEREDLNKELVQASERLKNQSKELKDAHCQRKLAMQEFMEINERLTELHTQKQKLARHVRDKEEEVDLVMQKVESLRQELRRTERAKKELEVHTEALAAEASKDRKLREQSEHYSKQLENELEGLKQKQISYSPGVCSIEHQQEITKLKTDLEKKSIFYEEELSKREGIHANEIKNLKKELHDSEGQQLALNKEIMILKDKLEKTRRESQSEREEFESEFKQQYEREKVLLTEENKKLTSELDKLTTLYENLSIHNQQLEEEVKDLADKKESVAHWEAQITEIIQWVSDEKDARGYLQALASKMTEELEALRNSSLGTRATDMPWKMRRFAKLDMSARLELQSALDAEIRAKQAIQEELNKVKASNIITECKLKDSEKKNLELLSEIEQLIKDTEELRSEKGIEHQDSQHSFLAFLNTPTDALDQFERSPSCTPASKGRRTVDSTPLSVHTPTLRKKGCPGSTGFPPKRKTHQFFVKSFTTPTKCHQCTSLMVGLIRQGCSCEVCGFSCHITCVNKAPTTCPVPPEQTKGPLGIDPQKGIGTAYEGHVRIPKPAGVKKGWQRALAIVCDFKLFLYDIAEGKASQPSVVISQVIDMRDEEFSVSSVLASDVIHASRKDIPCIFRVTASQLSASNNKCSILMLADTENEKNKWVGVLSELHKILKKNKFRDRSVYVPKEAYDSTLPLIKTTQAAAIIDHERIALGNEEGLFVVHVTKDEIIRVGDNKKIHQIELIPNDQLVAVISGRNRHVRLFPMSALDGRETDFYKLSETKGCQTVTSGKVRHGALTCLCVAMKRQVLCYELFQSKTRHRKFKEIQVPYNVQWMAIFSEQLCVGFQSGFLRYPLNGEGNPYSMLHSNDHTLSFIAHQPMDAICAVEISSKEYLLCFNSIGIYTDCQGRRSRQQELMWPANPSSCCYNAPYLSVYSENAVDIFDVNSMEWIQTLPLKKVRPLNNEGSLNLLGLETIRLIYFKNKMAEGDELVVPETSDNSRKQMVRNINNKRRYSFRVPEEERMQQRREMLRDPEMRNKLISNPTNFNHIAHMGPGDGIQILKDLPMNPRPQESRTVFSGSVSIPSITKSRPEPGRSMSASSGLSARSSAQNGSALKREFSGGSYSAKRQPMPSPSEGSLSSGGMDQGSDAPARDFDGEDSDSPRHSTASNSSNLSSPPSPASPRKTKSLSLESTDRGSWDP
# UniProt Q86Y07: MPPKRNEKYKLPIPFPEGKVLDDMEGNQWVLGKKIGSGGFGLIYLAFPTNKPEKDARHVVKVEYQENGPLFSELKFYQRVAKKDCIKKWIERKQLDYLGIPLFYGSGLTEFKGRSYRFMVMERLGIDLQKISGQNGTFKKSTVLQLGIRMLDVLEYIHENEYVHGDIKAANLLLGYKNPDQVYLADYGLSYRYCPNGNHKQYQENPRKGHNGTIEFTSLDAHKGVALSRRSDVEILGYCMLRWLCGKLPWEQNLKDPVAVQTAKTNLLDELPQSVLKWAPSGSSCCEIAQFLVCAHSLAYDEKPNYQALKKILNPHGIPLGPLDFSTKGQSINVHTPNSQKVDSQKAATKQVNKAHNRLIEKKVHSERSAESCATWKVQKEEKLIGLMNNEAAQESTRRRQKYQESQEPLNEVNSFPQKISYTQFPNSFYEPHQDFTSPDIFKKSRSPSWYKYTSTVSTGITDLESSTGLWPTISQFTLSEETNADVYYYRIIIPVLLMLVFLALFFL
# UniProt Q9BYP7: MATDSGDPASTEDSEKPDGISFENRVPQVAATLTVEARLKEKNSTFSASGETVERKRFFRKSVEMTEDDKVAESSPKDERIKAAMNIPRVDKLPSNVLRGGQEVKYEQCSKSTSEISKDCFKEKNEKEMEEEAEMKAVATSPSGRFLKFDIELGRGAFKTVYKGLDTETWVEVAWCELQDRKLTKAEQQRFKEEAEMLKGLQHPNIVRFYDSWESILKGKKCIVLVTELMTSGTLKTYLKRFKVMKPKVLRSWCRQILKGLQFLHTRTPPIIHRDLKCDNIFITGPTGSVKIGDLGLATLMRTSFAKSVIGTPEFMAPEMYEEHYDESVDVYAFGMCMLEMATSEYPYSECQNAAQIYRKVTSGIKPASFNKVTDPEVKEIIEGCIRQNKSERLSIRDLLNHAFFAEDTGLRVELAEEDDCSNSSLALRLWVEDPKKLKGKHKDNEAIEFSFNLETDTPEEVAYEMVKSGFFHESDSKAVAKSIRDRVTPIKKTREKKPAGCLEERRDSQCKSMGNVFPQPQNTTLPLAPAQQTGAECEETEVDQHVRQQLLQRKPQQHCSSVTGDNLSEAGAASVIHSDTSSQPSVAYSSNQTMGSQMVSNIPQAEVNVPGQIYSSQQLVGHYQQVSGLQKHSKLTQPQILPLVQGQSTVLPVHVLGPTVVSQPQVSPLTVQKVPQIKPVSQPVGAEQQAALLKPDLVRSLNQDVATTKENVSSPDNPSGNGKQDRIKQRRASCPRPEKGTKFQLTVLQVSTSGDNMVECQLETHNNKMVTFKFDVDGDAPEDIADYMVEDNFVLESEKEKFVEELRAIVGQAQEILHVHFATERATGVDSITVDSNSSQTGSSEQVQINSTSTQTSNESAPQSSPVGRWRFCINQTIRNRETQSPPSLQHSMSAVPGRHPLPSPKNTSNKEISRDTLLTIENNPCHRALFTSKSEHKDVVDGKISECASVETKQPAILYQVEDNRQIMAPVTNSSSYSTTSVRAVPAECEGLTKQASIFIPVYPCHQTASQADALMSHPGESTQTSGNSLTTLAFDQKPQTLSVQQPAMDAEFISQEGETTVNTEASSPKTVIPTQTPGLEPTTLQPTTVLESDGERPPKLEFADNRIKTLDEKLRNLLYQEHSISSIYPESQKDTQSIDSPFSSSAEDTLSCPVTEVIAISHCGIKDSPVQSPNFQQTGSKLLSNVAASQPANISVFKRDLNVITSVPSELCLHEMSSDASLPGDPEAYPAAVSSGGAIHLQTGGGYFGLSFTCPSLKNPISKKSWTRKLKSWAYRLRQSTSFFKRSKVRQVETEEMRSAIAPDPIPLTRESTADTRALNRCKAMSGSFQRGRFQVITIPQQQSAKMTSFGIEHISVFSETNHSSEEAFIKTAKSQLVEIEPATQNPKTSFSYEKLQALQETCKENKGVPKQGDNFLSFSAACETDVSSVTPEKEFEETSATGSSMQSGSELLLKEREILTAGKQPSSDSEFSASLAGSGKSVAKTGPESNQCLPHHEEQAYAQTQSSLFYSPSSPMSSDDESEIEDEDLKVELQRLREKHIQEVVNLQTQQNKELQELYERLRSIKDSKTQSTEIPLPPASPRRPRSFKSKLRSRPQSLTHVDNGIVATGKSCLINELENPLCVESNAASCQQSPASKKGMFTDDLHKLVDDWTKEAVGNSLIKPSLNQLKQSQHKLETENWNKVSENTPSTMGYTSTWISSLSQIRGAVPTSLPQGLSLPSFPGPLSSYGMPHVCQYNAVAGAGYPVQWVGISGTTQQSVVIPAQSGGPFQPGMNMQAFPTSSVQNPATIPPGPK
# UniProt Q13177, whole entry: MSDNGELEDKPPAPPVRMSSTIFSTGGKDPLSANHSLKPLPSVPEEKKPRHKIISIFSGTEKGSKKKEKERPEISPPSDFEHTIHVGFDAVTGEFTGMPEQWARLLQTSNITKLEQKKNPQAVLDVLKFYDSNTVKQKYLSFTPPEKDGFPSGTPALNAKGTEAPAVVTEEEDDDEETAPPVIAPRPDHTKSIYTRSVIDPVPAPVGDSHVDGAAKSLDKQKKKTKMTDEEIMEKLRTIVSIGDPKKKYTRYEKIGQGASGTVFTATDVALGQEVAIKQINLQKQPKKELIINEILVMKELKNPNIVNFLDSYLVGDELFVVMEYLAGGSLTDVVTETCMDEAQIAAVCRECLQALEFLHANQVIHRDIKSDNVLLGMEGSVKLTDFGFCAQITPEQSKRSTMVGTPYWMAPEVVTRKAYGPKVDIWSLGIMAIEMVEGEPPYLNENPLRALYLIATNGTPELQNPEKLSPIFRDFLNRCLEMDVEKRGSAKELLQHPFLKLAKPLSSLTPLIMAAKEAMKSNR
# UniProt P05771, whole entry, looked up: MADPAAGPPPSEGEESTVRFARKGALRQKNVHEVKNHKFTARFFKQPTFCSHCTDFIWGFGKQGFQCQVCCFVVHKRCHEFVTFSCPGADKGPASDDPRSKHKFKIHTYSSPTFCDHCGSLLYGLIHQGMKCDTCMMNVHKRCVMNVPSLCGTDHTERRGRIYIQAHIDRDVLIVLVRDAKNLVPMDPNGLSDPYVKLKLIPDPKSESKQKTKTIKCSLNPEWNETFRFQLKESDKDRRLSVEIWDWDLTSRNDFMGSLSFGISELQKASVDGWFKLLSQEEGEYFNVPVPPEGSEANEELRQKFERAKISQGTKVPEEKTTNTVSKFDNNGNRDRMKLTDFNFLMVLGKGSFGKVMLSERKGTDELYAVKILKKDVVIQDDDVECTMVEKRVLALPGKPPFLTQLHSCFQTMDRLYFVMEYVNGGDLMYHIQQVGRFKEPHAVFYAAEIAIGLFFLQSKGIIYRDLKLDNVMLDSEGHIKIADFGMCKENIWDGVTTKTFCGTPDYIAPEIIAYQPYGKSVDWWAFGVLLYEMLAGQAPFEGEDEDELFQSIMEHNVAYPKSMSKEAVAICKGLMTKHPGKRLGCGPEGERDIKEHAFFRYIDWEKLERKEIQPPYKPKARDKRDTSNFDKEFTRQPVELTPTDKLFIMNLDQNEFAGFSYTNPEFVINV
# For part of these data: Shown are results outside the selection of strong results, which stands elsewhere. The rule behind the calls is not given here. The list shows a part of the results, in another mix than the full data.
# Columns and labels:
# [1] = target: T1, Serine/threonine-protein kinase TAO2 (Homo sapiens) (UniProt Q9UL54); details: at 1 µM
# T1 sequence (whole entry): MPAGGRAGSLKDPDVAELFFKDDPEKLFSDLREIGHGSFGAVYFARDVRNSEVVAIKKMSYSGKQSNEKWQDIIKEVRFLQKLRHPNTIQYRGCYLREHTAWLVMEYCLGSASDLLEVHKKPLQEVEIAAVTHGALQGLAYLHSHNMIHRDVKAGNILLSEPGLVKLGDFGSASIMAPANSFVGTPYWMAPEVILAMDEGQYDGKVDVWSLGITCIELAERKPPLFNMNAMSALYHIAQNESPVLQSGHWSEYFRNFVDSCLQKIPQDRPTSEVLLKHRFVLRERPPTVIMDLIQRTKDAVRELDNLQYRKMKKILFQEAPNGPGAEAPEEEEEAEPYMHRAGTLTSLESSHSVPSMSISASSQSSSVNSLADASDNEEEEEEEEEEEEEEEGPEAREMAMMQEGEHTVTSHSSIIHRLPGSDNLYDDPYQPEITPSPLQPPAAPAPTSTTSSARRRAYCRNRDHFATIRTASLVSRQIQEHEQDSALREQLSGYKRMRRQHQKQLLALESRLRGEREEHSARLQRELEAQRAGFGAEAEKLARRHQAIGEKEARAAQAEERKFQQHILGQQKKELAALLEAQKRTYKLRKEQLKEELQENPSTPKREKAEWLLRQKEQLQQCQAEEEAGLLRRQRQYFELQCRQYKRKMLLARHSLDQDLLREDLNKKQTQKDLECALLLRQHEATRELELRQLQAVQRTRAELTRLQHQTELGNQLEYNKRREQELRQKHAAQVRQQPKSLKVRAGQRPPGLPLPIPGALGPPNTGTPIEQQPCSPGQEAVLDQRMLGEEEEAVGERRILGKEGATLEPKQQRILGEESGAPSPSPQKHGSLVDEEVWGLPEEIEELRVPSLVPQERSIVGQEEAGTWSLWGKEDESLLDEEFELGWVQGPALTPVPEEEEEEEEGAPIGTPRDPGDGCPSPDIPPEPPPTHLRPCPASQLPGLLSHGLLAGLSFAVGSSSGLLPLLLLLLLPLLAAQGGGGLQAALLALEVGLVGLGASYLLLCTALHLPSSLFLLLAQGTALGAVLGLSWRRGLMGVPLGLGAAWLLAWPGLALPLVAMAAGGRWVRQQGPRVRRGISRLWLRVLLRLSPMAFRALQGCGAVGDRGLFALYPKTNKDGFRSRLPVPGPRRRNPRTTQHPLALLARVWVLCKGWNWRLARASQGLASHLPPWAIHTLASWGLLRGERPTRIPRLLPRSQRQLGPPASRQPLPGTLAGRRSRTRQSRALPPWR
# [2] = target: T2, TGF-beta receptor type-1 (Homo sapiens) (UniProt P36897); details: at 10 µM
# T2 sequence (whole entry): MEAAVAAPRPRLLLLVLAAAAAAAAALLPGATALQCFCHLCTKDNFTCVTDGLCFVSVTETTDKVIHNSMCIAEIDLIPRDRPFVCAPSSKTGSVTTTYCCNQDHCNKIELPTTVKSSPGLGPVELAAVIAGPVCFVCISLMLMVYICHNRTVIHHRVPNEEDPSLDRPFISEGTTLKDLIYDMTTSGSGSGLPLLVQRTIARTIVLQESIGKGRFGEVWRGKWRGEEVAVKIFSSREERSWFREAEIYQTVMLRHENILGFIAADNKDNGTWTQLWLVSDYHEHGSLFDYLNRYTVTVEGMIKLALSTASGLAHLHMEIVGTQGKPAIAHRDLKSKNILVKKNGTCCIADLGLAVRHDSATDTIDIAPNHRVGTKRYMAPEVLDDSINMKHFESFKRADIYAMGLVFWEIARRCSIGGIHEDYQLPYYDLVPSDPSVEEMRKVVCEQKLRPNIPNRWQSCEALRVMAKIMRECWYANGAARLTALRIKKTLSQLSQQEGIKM
# [3] = target: Inhibitor of nuclear factor kappa-B kinase subunit beta (Homo sapiens) (UniProt O14920); details: at 10 µM
# [4] = target: Mitogen-activated protein kinase 9 (Homo sapiens) (UniProt P45984); details: at 10 µM
# [5] = target: T3, Serine/threonine-protein kinase STK11 (Homo sapiens) (UniProt Q15831); details: at 1 µM
# T3 sequence (whole entry): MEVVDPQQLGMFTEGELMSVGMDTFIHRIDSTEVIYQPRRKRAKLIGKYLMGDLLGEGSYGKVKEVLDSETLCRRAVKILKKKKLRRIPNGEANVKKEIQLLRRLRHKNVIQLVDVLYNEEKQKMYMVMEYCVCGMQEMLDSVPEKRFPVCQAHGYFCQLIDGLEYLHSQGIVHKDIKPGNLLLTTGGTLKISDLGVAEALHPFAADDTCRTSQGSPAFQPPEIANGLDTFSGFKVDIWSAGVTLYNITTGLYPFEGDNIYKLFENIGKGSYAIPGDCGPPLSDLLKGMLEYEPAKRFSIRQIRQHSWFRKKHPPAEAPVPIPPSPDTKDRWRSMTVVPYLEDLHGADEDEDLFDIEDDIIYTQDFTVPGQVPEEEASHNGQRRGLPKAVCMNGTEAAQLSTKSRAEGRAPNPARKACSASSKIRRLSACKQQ
# [6] = target: T3, Serine/threonine-protein kinase STK11 (Homo sapiens); details: at 10 µM
# [7] = target: Mitogen-activated protein kinase 3 (Homo sapiens) (UniProt P27361); details: at 1 µM
# [8] = target: Mitogen-activated protein kinase 1 (Homo sapiens) (UniProt P28482); details: at 1 µM
# [9] = target: Mitogen-activated protein kinase 1 (Homo sapiens) (UniProt P28482); details: at 10 µM
# [10] = target: MAP kinase-activated protein kinase 2 (Homo sapiens) (UniProt P49137); details: at 10 µM
# [11] = target: Serine/threonine-protein kinase MRCK alpha (Homo sapiens) (UniProt Q5VT25); details: at 1 µM
# [12] = target: Serine/threonine-protein kinase MRCK beta (Homo sapiens) (UniProt Q9Y5S2); details: at 1 µM
# [13] = target: Serine/threonine-protein kinase MRCK beta (Homo sapiens) (UniProt Q9Y5S2); details: at 10 µM
# [14] = target: Serine/threonine-protein kinase Nek3 (Homo sapiens) (UniProt P51956); details: at 1 µM;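 note: residual NEK3 kinase activity given as percent of control, assayed in 8 mM MOPS buffer pH 7.0 containing 0.2 mM EDTA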
# [15] = target: Serine/threonine-protein kinase VRK2 (Homo sapiens) (UniProt Q86Y07); details: at 1 µM;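 note: remaining VRK2 kinase activity expressed as percent of uninhibited control, measured in MOPS buffer at pH 7.0 containing EDTA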
# [16] = target: Serine/threonine-protein kinase WNK3 (Homo sapiens) (UniProt Q9BYP7); details: at 1 µM;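 note: remaining kinase activity expressed versus control, assayed in 8 mM MOPS buffer pH 7.0 with 0.2 mM EDTA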
# [17] = target: RAF proto-oncogene serine/threonine-protein kinase (Homo sapiens) (UniProt P04049); details: at 1 µM
# [18] = target: RAF proto-oncogene serine/threonine-protein kinase (Homo sapiens) (UniProt P04049); details: at 10 µM
# [19] = target: Serine/threonine-protein kinase mTOR (Homo sapiens) (UniProt P42345); details: at 10 µM
# [20] = target: T4, Serine/threonine-protein kinase Nek6 (Homo sapiens) (UniProt Q9HC98); details: at 1 µM
# T4 sequence (whole entry): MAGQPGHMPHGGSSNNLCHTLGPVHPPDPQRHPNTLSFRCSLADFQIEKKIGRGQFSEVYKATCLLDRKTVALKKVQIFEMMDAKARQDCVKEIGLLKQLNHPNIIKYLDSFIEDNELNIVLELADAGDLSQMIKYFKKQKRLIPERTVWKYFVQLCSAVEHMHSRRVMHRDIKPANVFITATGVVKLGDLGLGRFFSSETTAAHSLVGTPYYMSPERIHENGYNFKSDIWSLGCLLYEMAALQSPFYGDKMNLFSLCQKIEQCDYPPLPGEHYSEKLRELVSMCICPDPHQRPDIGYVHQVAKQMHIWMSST
# [21] = target: T4, Serine/threonine-protein kinase Nek6 (Homo sapiens); details: at 10 µM
# [22] = target: T5, Serine/threonine-protein kinase NLK (Homo sapiens) (UniProt Q9UBE8); details: at 1 µM
# T5 sequence (whole entry): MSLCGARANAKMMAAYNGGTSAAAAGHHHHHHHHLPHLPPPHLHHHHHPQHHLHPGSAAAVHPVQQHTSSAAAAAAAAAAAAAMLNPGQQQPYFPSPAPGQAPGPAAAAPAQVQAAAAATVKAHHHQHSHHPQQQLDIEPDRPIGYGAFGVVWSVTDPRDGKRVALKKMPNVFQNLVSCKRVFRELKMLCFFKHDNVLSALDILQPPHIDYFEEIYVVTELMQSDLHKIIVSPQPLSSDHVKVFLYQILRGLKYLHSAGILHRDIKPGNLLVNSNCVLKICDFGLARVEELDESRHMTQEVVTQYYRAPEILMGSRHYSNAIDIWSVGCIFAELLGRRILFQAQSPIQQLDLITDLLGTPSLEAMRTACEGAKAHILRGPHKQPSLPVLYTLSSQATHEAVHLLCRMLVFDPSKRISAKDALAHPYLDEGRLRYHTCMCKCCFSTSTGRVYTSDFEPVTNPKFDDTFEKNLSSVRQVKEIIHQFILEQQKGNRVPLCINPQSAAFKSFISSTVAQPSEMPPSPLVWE
# [23] = target: T5, Serine/threonine-protein kinase NLK (Homo sapiens); details: at 10 µM
# [24] = target: Serine/threonine-protein kinase PAK 2 (Homo sapiens) (UniProt Q13177); details: at 1 µM
# [25] = target: cAMP-dependent protein kinase catalytic subunit alpha (Homo sapiens) (UniProt P17612); details: at 10 µM
# [26] = target: RAC-alpha serine/threonine-protein kinase (Homo sapiens) (UniProt P31749); details: at 1 µM
# [27] = target: Protein kinase C beta type (Homo sapiens) (UniProt P05771); details: at 1 µM
# [28] = target: Protein kinase C beta type (Homo sapiens) (UniProt P05771); details: at 10 µM
# [29] = target: Protein kinase C delta type (Homo sapiens) (UniProt Q05655); details: at 1 µM
# [30] = target: T6, Protein kinase C epsilon type (Homo sapiens) (UniProt Q02156); details: at 10 µM
# T6 sequence (whole entry): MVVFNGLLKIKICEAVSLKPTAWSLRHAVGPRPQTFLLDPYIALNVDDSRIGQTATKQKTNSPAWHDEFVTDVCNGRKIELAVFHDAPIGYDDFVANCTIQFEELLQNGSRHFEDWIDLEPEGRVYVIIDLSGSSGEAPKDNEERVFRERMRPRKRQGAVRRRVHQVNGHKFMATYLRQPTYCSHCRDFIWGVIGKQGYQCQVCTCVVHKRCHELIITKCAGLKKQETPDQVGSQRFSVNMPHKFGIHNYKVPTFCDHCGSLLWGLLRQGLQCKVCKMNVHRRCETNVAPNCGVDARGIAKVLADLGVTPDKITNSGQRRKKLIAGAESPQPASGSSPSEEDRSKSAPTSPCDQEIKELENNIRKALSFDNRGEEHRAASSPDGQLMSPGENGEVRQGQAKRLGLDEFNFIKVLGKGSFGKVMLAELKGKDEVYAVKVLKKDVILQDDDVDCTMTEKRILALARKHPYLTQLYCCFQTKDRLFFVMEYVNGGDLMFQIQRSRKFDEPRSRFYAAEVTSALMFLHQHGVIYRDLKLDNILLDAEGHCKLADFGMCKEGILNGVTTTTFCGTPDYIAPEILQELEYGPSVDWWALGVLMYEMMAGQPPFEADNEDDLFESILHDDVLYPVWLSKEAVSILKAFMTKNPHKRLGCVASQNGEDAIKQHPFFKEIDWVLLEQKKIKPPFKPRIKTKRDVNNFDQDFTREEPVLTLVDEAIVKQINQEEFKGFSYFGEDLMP
smiles,measurement,setting,value
CCN(CC)CCNC(=O)c1c(C)[nH]c(/C=C2\C(=O)Nc3ccc(Cl)cc32)c1C,residual activity,[1],89%
same,residual activity,[2],83%
same,residual activity,[3],79%
same,residual activity,[4],95%
same,residual activity,[5],98%
same,residual activity,[6],86%
same,residual activity,[7],91%
same,residual activity,[8],97%
same,residual activity,[9],91%
same,residual activity,[10],86%
same,residual activity,[11],118%
same,residual activity,[12],103%
same,residual activity,[13],91%
same,residual activity,[14],111%
same,residual activity,[15],inactive: 108%
same,residual activity,[16],inactive: 94%
same,residual activity,[17],97%
same,residual activity,[18],102%
same,residual activity,[19],102%
same,residual activity,[20],inactive: 91%
same,residual activity,[21],96%
same,residual activity,[22],102%
same,residual activity,[23],86%
same,residual activity,[24],110%
same,residual activity,[25],93%
same,residual activity,[26],99%
same,residual activity,[27],105%
same,residual activity,[28],94%
same,residual activity,[29],95%
same,residual activity,[30],108%
